## scFv variants of Ab-14 (heavy chain) against a SARS-CoV-2 spike peptide

Reference: Li et al. 2023, doi:10.1038/s41467-023-39022-2. File: FLAb, binding data.

Binding partner: SARS-CoV-2 spike HR2 peptide, sequence PDVDLGDISGINAS.

The variants keep the light chain, the linker and the frameworks of Ab-14 (scFv order VH, three GGGGS repeats, VL).
VH: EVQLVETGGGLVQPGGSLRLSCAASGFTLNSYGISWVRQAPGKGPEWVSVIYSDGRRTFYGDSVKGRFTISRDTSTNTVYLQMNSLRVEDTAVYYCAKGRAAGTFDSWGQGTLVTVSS
VL: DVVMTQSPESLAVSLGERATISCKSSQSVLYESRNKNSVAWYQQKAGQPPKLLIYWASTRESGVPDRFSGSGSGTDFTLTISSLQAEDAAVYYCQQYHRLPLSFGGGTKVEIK

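The starting antibody came from a phage panning campaign against this peptide. Designed CDR sequences, proposed from the first random library and measured here. Group labels follow the data file (Ctrl: baseline library sampled from a position-specific scoring matrix, with some repeated check sequences; En: ensemble of fine-tuned language models; GP: Gaussian process model; GPLM: also part of the Gaussian process libraries; HC: hill climbing; Gen: genetic algorithm; Gibbs: Gibbs sampling; a sequence that several methods proposed may carry one label only). The assay is AlphaSeq: two haploid yeast populations carry antibody and antigen on their surface. Binding brings cells together so that they mate, and sequencing counts the barcode pairs among the diploids. The ratio of observed to expected reads was calibrated, replicate by replicate, on BCL2-family standards whose Kd was known from biolayer interferometry. Each pool was mated in six replicate cultures.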

Each variant is given by its three heavy chain CDRs, as the data file delimits them; those of the parent are GFTLNSYGIS, VIYSDGRRTFYGDSVK, GRAAGTFDS. Kd is apparent (estimated from mating counts) and averaged on the log scale over replicates with a signal. Smaller is tighter. "no signal" means that the variant was in the library but no mating with the target was seen in any replicate; the authors take this as a sign of poor binding, and no number exists. The authors averaged sequences with at least three values out of six and counted those with two or fewer as poor binders. Nonspecific signal, from three strains lacking the peptide, appeared in 1% of pairings of all heavy chain designs, centred on 120 nM (5% of these signals below 7.0 nM); values are not corrected for it. The range of this assay differs from that of the first round, and the authors advise against merging the two.

{"CDR-H1": "GFRLNEYGIS", "CDR-H2": "VIYSDGRRTFYGDSVK", "CDR-H3": "GRNAGTFDS", "group": "GP_Gen", "apparent Kd": "9.2 nM", "replicates with signal": "6/6"}
{"CDR-H1": "GFDLNEYGIS", "CDR-H2": "VIYADGMRTFYADSVK", "CDR-H3": "GQLAGTFDQ", "group": "En_HC", "apparent Kd": "790 pM", "replicates with signal": "6/6"}
{"CDR-H1": "GFDLNEYGIS", "CDR-H2": "VIYADGRRTFYIDSVK", "CDR-H3": "GENAGTFDM", "group": "En_HC", "apparent Kd": "190 pM", "replicates with signal": "6/6"}
{"CDR-H1": "GFDLNEYGIS", "CDR-H2": "VIYADGRRTAYADSVK", "CDR-H3": "GNVAGTFDV", "group": "En_Gen", "apparent Kd": "280 pM", "replicates with signal": "6/6"}
{"CDR-H1": "GFQLNSYGIS", "CDR-H2": "VIYSDGRRTFYGDSVR", "CDR-H3": "GRAAGTFDS", "group": "Ctrl", "apparent Kd": "160 nM", "replicates with signal": "3/6"}
{"CDR-H1": "GFQLNEYGIS", "CDR-H2": "VIYSDGRRTFYGDQVK", "CDR-H3": "GRTAGTFDK", "group": "GP_Gen", "apparent Kd": "3.6 nM", "replicates with signal": "6/6"}
{"CDR-H1": "GFDVNEYGIS", "CDR-H2": "VIYADGSRVAIEESVK", "CDR-H3": "GKIAGTFFV", "group": "En_Gibbs", "apparent Kd": "360 nM", "replicates with signal": "1/6"}
{"CDR-H1": "GFDLNSYGIS", "CDR-H2": "VIYSDGRRTFYGDSVK", "CDR-H3": "GRAAAIFDS", "group": "GP_HC", "apparent Kd": "no signal", "replicates with signal": "0/6"}
{"CDR-H1": "GFQLNEYGIS", "CDR-H2": "VIYSDGRRTFYTDSVK", "CDR-H3": "GRAAGTFDS", "group": "GP_HC", "apparent Kd": "4.8 nM", "replicates with signal": "6/6"}
{"CDR-H1": "GFDLEEYGIS", "CDR-H2": "VIYADGERVFYADSVK", "CDR-H3": "GGFDGYKTR", "group": "En_Gibbs", "apparent Kd": "no signal", "replicates with signal": "0/6"}
{"CDR-H1": "GFDLNEYGIS", "CDR-H2": "VIYADGMRTAYSDSVK", "CDR-H3": "GHNAGTFDI", "group": "En_Gen", "apparent Kd": "280 pM", "replicates with signal": "6/6"}
{"CDR-H1": "GFWLNDYGIS", "CDR-H2": "VIYSDGRRTFYGDSVK", "CDR-H3": "GRTAGTFDS", "group": "GPLM_Gen", "apparent Kd": "12 nM", "replicates with signal": "6/6"}
{"CDR-H1": "GFDLNEYGIS", "CDR-H2": "VIYADGRRTAYIDSVK", "CDR-H3": "GEEAGTFDK", "group": "En_HC", "apparent Kd": "1.3 nM", "replicates with signal": "6/6"}
{"CDR-H1": "GFELNMYGIS", "CDR-H2": "VIYSDGRRTFYSDSVK", "CDR-H3": "GRTAGTFDS", "group": "GP_Gen", "apparent Kd": "810 pM", "replicates with signal": "6/6"}
{"CDR-H1": "GFDLREYGIS", "CDR-H2": "VIYADGRRVAYNDKVK", "CDR-H3": "GELTGTFDQ", "group": "En_Gibbs", "apparent Kd": "26 nM", "replicates with signal": "1/6"}
{"CDR-H1": "GFDLNSYGIS", "CDR-H2": "VIYSDGRRTFYGDNVK", "CDR-H3": "GRAAGTFDS", "group": "Ctrl", "apparent Kd": "2.5 nM", "replicates with signal": "6/6"}
{"CDR-H1": "GFDLNEYGIS", "CDR-H2": "VIYADGVRTAYQDSVK", "CDR-H3": "GNVAGTFDI", "group": "En_Gen", "apparent Kd": "620 pM", "replicates with signal": "6/6"}
{"CDR-H1": "GFDLNEYGIS", "CDR-H2": "VIYADGMRTSYADSVK", "CDR-H3": "GANAGTFDV", "group": "En_Gen", "apparent Kd": "160 pM", "replicates with signal": "6/6"}
{"CDR-H1": "GFDLNEYGIS", "CDR-H2": "VIYSDGRRTFYGDSVK", "CDR-H3": "GEAAGTFDS", "group": "GPLM_Gen", "apparent Kd": "49 nM", "replicates with signal": "6/6"}
{"CDR-H1": "GFELNNYGIS", "CDR-H2": "VIYSDGRRTFYGDSVK", "CDR-H3": "GQAAGTFDS", "group": "GPLM_Gibbs", "apparent Kd": "2.7 nM", "replicates with signal": "2/6"}
{"CDR-H1": "GFTLNSYGIS", "CDR-H2": "VIYSDGRRTFYGDSVK", "CDR-H3": "GRAAGTADS", "group": "Ctrl", "apparent Kd": "no signal", "replicates with signal": "0/6"}
{"CDR-H1": "GFTLNSYGIS", "CDR-H2": "VIYSDGRRTFYGDSVK", "CDR-H3": "GRAAGGFDH", "group": "Ctrl", "apparent Kd": "no signal", "replicates with signal": "0/6"}
{"CDR-H1": "GFTLNEYGIS", "CDR-H2": "VIYSDGERTFYADSVK", "CDR-H3": "GRAAGTFDS", "group": "GP_HC", "apparent Kd": "1.2 nM", "replicates with signal": "6/6"}
{"CDR-H1": "GFTLNSYGGS", "CDR-H2": "VIYSDGRRTFYIDSVK", "CDR-H3": "GDAAGTFDW", "group": "Ctrl", "apparent Kd": "no signal", "replicates with signal": "0/6"}
{"CDR-H1": "GFSLNSYGIS", "CDR-H2": "VIYSDGRRTFYGDSVK", "CDR-H3": "GKQAGTFDS", "group": "GPLM_Gen", "apparent Kd": "3.2 nM", "replicates with signal": "6/6"}
{"CDR-H1": "GFDLDEYGIS", "CDR-H2": "VIYADGRRTFYQDSVK", "CDR-H3": "GEAAGTFDQ", "group": "En_HC", "apparent Kd": "690 pM", "replicates with signal": "6/6"}

The last 2 entries again:

{"CDR-H1": "GFSLNSYGIS", "CDR-H2": "VIYSDGRRTFYGDSVK", "CDR-H3": "GKQAGTFDS", "group": "GPLM_Gen", "apparent Kd": "3.2 nM", "replicates with signal": "6/6"}
{"CDR-H1": "GFDLDEYGIS", "CDR-H2": "VIYADGRRTFYQDSVK", "CDR-H3": "GEAAGTFDQ", "group": "En_HC", "apparent Kd": "690 pM", "replicates with signal": "6/6"}